Consider one compound from ChEMBL document CHEMBL1125093, “Structure-activity relationships of 8-cycloalkyl-1,3-dipropylxanthines as antagonists of adenosine receptors” (J Med Chem, 1990).

One may read the Ki as the equilibrium dissociation constant of an inhibitor or competing ligand from its target. Read a high Ki as weaker binding.

This assay has as its target Adenosine receptor A1 (Rattus norvegicus) (UniProt P25099). Put plainly: Antagonist activity against adenosine A1 receptor in rat adipocytes.

For the compound `CCCn1c(=O)c2nc(C3CC3)[nH]c2n(CCC)c1=O`, the Ki is 42 nM.
